Active and inactive are the calls of the source. No cut-off for these calls is given here.
Molecular target: T1, Bcl-2-related protein A1 (Homo sapiens) (UniProt Q16548)
T1 sequence (whole entry): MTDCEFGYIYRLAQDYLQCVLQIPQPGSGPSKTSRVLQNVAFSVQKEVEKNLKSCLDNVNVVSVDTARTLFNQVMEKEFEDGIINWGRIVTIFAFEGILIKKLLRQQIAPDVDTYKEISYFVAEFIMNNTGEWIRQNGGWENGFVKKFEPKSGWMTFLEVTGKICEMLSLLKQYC
Assay: Binding affinity to intact Bfl-1 (unknown origin) assessed as adduct formation incubated for 1 hrs by high resolution mass spectrum analysis

- Activity: inactive
SMILES: O=C(O)CSc1cc(NS(=O)(=O)c2ccc(Br)cc2)c2ccccc2c1O
